{
  "source": "paper PMC2697495",
  "about": "(The Journal of pharmacy and pharmacology, 2008)",
  "biological_target": "T1, endogenous β-glucuronidase, pooled human liver microsomes (Homo sapiens, UniProt P08236)",
  "T1 sequence (P08236 23-651)": "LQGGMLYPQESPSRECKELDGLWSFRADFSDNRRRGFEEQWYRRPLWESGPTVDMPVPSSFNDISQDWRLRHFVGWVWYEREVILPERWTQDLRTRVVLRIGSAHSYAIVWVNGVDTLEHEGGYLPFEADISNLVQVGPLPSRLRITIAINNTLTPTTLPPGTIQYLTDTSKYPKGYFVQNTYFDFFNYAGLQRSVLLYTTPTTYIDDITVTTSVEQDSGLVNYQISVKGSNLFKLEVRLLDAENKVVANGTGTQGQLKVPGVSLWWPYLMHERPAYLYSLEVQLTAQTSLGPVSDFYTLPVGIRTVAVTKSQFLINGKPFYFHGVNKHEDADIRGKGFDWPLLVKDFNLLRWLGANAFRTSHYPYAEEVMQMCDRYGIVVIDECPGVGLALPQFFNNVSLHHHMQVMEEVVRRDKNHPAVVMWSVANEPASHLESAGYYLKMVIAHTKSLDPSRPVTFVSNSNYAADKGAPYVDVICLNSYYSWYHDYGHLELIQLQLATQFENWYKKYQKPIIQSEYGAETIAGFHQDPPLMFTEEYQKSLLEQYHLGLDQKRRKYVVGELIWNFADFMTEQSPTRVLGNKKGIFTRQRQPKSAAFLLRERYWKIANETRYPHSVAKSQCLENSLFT",
  "assay": "Estradiol glucuronide hydrolysis",
  "settings": "tissue microsomes; 10 mM saccharolactone",
  "data": [
    {"smiles": "O=C(O)[C@@H](O)[C@H]1OC(=O)[C@H](O)[C@H]1O", "note": "[saccharolactone, D-saccharic acid 1,4-lactone]", "values": [
      {"measurement": "effect in preventing estradiol glucuronide degradation", "result": "minimal effect"}
    ]}
  ]
}
